Columns and labels:
[1] = Differential scanning calorimetry (thermal stability); format: physicochemical; details: DSC
HER2 = biological target: T1, HER2 (Homo sapiens, UniProt P04626); assay: SPR binding to target antigen HER2; details: immobilized antigen, 25 C, read-out: KD (Ave)
T1 construct: reaction with the purified antigen in 10 mM NaOAc at pH 4.5
Method: The ability of the ADCs to bind to the target antigen HER2 was assessed using SPR (surface plasmon resonance) binding. Briefly, binding by SPR was measured using the Bio-Rad ProteOn XPR36 instrument. Runs were carried out using 1×PBS running buffer at a temperature of 25 C. The target surface is generated using a GLC sensorchip via amine coupling kit (EDC/sNHS) activation followed by reaction with the purified antigen in 10 mM NaOAc at pH 4.5 until approximately 1000 RU signal is observed indicative of antigen immobilization. Remaining active groups are quenched by injection of enthanolamine. A 3-fold dilution series of the ADC with a blank buffer control is simultaneously injected at 50 mL/min for 120 s with a 20-minute dissociation, resulting in a set of binding sensograms with a buffer reference for each. A pulse of 0.85% phosphoric acid regenerates the antigen surface on the SPR chip.

Substance | unfolding transition (in words) [1] | Kd (HER2)
v9992: Recombinant domain III of human serum albumin, purchased from Albumin Bioscience | broad unfolding transition | –
v5110 | – | 0.6 nM

From patent US20160114057A1, “MODULAR PROTEIN DRUG CONJUGATE THERAPEUTIC” (ZYMEWORKS INC., priority 2013, published 2016)
